Data on 25 compounds can be found in PubChem BioAssay AID588334 (Broad Institute, 2011).

Only a part is listed here, and it is no random draw. Calls of active or inactive are those of the source.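 Rule for the calls: active = mean activation of at least 80% with every replicate also reaching 80%; inconclusive = mean reaches 80% but some replicate falls short; inactive = the rest.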

A short description of this assay: MITF-driven TRPM1 luciferase induction in melanoma cells – cell-based, SK-MEL-5, single point, primary screen (AID 588334).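 Note: 0% = neutral control wells and 100% = parthenolide positive control wells.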 Conditions: SK-MEL-5 TRPM1-promoter luciferase, 24 h; at 12.5 µM; stronger effect = higher value; % of positive control, neutral wells = 0.
As to `COc1ccccc1OP(C)(=O)Nc1cc(Cl)ccc1C` (stereo not given), the activation is inactive: -0.964%. The figure for `Cc1cc(C)cc(OP(C)(N)=O)c1` (stereo not given) is inactive: 1.04%; for `CCOC(=O)c1ccc(NP(C)(=O)Oc2ccccc2)cc1` (stereo not given) it is inactive: -6.16%.

As to `COc1ccccc1OP(C)(=O)Nc1ccc(C)cc1` (stereo not given), the activation was inactive: -14%. Next, `Cc1ccc(NP(C)(=O)Oc2ccccc2)c(C)c1` (stereo not given): inactive: -5.2%; `CC(C)(C)c1ccc(OP(C)(=O)Nc2ccc(SC(F)(F)F)cc2)cc1` (stereo not given): inactive: -8.49%; `Cc1cccc(C)c1OP(C)(N)=O` (stereo not given): inactive: 0.443%. The figure for `O=[N+]([O-])c1ccc2c(c1)C=Nc1ccccc1O2` is inactive: -11.2%; for `O=[N+]([O-])c1cc([N+](=O)[O-])c(Nc2cccnc2)c([N+](=O)[O-])c1` it is inactive: 0.718%; for `CCN(CC)CCCOC(=O)C(O)(c1ccccc1)c1ccccc1` it is inactive: -8.15%. Next, `CP(=O)(Nc1ccccn1)Oc1ccc(Cl)cc1` (stereo not given): inactive: 4.45%; `CCOP(C)(=S)SCC(=O)NC(C)C(=O)O` (stereo not given): inactive: -3%. `CCOC(=O)c1ccc(NP(C)(=O)Oc2ccc(OC)cc2)cc1` (stereo not given): the activation is inactive: 6.65%. The figure for `CP(=O)(NC(=O)Nc1ccccc1)Oc1ccccc1` (stereo not given) is inactive: -2.8%; for `Cc1cc(C)cc(OP(C)(=O)Nc2ccc(SC(F)(F)F)cc2)c1` (stereo not given) it is inactive: 0.373%; for `Cc1cccc(C)c1OP(C)(=O)Nc1ccc(SC(F)(F)F)cc1` (stereo not given) it is inactive: 17.1%.

For the compound `CP(=O)(Oc1ccccc1)OC(c1ccccc1)C(F)(F)F` (stereo not given), the activation is inactive: -9.15%. Next, `COc1ccccc1OP(C)(=O)Nc1ccccc1` (stereo not given): inactive: 19.8%; `CP(=O)(Nc1ccccc1Br)Oc1ccccc1` (stereo not given): inactive: -2.34%; `CP(=S)(Nn1cnnc1)Oc1ccccc1` (stereo not given): inactive: -5.34%. Next, `CP(=O)(Nc1ccc(SC(F)(F)F)cc1)Oc1ccccc1` (stereo not given): inactive: 9.16%; `CCCOc1ccc(NP(C)(=O)Oc2ccc(Cl)cc2)cc1` (stereo not given): inactive: 0.0185%. The figure for `CN1CCCCC1COC(=O)C1(O)c2ccccc2CCc2ccccc21` (stereo not given) is inactive: -3.61%. For the compound `O=[N+]([O-])c1cc([N+](=O)[O-])c(Nc2nnnn2CCO)c([N+](=O)[O-])c1`, the activation is inactive: 4.9%. For the compound `CC1=C2N=C(C=C3N=C(C(C)=C4[N-][C@@](C)([C@@H]5N=C1[C@](C)(CCC(=O)NC[C@@H](C)OP(=O)([O-])O[C@H]1[C@@H](O)[C@@H](n6cnc7cc(C)c(C)cc76)O[C@@H]1CO)[C@H]5CC(N)=O)[C@@](C)(CC(N)=O)[C@@H]4CCC(N)=O)[C@@](C)(CC(N)=O)[C@@H]3CCC(N)=O)C(C)(C)[C@@H]2CCC(N)=O.[C-]#N.[Co+3]`, the activation was inactive: -5.78%.
